Laboratory results published in BindingDB's records for doi:10.1021/acschembio.6b00677 (Pfizer, 2016).

Assays:
[1] = target: T1, Tyrosine-protein kinase ITK/TSK (Homo sapiens, UniProt Q08881); test: Test compounds were solubilized in dimethyl sulfoxide (DMSO) to a stock concentration of 30 mM. Compounds were diluted in DMSO to create an 11-point half log dilution series with a top concentration of 600 μM. […] The compound plates were diluted 1 to 60 in the assay, resulting in a final assay compound concentration range of 10 μM to 100 pM and a final assay concentration of 1.7% DMSO. Test compounds and controls solubilized in 100% DMSO were added (250 nL) to a 384 well polypropylene plate (Matrical) using anon contact acoustic dispenser. Kinase assays were carried out at room temperature in a 15 μL reaction buffer containing 20 mM HEPES, pH 7.4, 10 mM magnesium chloride, 0.01% bovine serum albumin (BSA), 0.0005% Tween 20 and 1mM Dithiothreitol (DTT). Reaction mixtures contained 1 μM o; conditions: 25 °C
T1 sequence (Q08881 whole entry): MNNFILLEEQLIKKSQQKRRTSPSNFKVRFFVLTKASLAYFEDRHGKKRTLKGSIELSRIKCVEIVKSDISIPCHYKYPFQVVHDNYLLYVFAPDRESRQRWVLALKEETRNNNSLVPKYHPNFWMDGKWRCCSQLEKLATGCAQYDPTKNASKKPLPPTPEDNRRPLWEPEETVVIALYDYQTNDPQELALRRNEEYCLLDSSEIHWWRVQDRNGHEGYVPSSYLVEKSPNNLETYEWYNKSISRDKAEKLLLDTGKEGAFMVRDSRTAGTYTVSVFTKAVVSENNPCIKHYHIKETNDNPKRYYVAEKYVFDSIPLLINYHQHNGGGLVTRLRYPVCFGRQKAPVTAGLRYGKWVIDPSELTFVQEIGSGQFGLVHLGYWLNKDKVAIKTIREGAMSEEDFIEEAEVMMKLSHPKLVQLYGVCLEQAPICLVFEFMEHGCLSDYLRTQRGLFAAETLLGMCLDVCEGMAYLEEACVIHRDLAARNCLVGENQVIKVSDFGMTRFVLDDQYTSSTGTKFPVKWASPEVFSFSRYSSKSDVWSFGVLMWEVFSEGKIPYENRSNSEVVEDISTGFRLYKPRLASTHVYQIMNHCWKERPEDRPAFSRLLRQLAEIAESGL

[2] = target: T1, Tyrosine-protein kinase ITK/TSK; test: TR-FRET Competition Assay; conditions: pH 7.5
Description: Assay buffer was 20 mM HEPES, pH 7.5, 10 mM MgCl2, 0.01% BSA, 1 mM DTT, 0.0005% Tween 20, and 2% DMSO. […] The assays were read using an EnVi

IC50 [1]: 8.51 µM | Ki [2]: 0.0269 nM
SMILES: C=CC(=O)N1C[C@H](Nc2ncnc3[nH]ccc23)CC[C@@H]1C [PF-06651600]
